In one assay the target is recombinant HDAC1 enzyme (Homo sapiens (Human), UniProt Q13547). The assay is described as follows: HDAC1 inhibitory activity (isoform selectivity). In kind it is biochemical. The settings on record: read-out: HDAC1 inhibition (IC50). The procedure: Since the Benzamide type compounds are known to have potential for HDAC class I specificity, active compounds in this series were tested for HDAC1 inhibitory activity. The assay was carried out, as previously described using recombinant HDAC1 enzyme (BIOMOL, USA) and following manufacturer's instructions.

Amino acid sequences for entries named in this document (tags omitted).
UniProt Q13547, whole entry: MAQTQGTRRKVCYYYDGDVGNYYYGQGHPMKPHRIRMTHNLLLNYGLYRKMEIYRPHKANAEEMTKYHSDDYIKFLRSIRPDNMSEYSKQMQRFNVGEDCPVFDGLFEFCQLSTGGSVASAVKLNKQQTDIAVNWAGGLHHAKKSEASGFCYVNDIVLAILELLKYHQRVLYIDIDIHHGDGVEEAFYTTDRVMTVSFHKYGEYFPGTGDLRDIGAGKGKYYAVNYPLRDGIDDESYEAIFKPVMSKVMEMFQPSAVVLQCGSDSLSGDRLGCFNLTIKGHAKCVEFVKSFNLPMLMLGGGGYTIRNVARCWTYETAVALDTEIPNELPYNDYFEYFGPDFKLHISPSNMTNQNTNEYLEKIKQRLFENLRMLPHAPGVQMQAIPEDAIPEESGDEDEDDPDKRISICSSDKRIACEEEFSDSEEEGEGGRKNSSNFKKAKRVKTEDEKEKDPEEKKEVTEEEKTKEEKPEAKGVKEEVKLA

The subject of assay [1] is HDAC (Mouse Liver Extract). The assay is described as follows: HDAC inhibition assay using Boc-Lys(Ac)-AMC substrate. It is filed as biochemical. As to conditions: mouse liver enzyme. Here is the method:
Inhibition of HDAC has been implicated to modulate transcription and to induce apoptosis or differentiation in cancer cells. The fluorometric assay provides a fast and fluorescence based method that eliminates radioactivity, extractions or chromatography, as used in traditional assays. The assay is based on two steps. First, the HDAC fluorometric substrate, which comprises an acetylated lysine side chain, is incubated with a sample containing HDAC activity (Mouse Liver Extract). Deacetylation of the substrate sensitizes the substrate, in the second step; treatment with the Trypsin stop solution produces a fluorophore that can be easily analyzed using fluorescence plate reader. Assay was done in 96-well black microplate and total volume of the assay was […]. […] The plate was pre-incubated at 37° C. for 5 minutes. […] The plate was incubated at 37° C. for 30 min. The reaction was stopped by adding 100 μL, of Trypsin stop solution and incubating at 37° C. for 15-30 min. Measuring the fluorescence at excitation wavelength of 360 nm and emission wavelength of 460 nm monitored the release of AMC. Buffer alone and substrate alone served as blank. […] (Dennis Wegener et al, Anal. Biochem, 321, 2003, 202-208).

Among the data in patent US8476255B2, “Histone deacetylase inhibitors” (Orchid Chemicals & Pharmaceuticals Limited, priority 2007, dated 2013) are IC50 values, retold here.

With `CSc1ccc(/C=C(/C(=O)NCc2ccc(C(=O)Nc3ccccc3N)cc2)c2ccccc2F)cc1` [Compound 24, N-(2-Aminophenyl)-4-((3-(4-methylthiophenyl)-2-(2-fluorophenyl)acrylamido)methyl)benzamide], the results for the IC50 (on recombinant HDAC1 enzyme; in assay [1]) were 0.062 µM and 82 µM, respectively.
The like results for `COc1cc(/C=C(/C(=O)NCc2ccc(C(=O)Nc3ccccc3N)cc2)c2ccc(F)cc2)ccc1F` [Compound 20, N-(2-Aminophenyl)-4-((3-(4-fluoro-3-methoxyphenyl)-2-(4-fluorophenyl)acrylamido)methyl)benzamide] were, in that order, 0.15 µM and 19 µM.
The matching figures for `COc1ccc(/C(=C\c2ccc(OC)c(OC)c2)C(=O)NCc2ccc(C(=O)Nc3ccccc3N)cc2)cc1` [Compound 27, N-(2-Aminophenyl)-4-((3-(3,4-dimethoxyphenyl)-2-(4-methoxyphenyl)acrylamido)methyl)benzamide]: 0.05 µM and 20 µM.
